These are literature values, as cited in patent US6340709B1, “Use of matrix metalloproteinase inhibitors for treating neurological disorders and promoting wound healing” (Warner-Lambert Company, priority 1996, dated 2002).

The chains behind the UniProt entries cited, without tags or fusion partners. Residues count along the entry.
UniProt P08254, 100-477, species assumed: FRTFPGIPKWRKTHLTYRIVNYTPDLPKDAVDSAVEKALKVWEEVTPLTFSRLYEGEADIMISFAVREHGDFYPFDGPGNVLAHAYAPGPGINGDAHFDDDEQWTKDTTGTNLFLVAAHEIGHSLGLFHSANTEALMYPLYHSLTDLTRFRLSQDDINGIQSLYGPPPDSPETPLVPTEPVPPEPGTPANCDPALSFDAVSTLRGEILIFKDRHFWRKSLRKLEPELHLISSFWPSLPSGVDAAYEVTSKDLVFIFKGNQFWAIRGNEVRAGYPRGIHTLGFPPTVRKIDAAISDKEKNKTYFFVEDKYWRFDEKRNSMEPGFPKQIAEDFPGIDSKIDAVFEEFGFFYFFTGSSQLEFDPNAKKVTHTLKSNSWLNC

This data set addresses MMP-3 (Homo sapiens, UniProt P08254). Conditions: cited from earlier work.

As for `CCCCCCCCCCCCCCCC[C@H](CC(=O)O)C(=O)N[C@@H](Cc1ccccc1)C(=O)NC` [Compound 12], the “MMP-3 % @ 100 μM” value is listed as 10% @.
